This note sets out measurements from article PMC6405842, “Identification of a novel scaffold for a small molecule GPR139 receptor agonist” (Scientific Reports, 2019).

Sequences of proteins named here, by UniProt entry; tags and fusion partners are left off.
UniProt Q6DWJ6, whole entry: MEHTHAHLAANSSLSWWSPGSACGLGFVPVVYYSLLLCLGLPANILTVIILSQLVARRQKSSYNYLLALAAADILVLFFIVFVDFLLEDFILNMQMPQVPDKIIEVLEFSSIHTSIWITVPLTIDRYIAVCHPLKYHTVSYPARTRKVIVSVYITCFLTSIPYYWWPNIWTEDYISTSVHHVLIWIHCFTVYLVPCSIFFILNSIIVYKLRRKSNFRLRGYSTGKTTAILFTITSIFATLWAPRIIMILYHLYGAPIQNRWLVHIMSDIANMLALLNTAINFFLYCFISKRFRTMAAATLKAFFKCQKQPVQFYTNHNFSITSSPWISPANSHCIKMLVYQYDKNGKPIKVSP
UniProt P11229, whole entry: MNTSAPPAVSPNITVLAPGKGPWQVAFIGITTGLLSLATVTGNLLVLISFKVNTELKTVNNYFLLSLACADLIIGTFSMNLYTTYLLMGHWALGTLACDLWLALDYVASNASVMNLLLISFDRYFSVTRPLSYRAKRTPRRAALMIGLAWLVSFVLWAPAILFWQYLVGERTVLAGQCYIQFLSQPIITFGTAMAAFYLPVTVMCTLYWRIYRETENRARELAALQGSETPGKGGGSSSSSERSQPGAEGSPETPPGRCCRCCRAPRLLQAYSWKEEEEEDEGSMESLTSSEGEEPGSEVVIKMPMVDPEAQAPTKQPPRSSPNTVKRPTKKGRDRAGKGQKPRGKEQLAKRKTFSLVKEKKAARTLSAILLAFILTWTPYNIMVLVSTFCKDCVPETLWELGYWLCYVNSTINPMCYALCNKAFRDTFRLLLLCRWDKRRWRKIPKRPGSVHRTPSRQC

Usually EC50 stands for the midpoint of the concentration-response curve.

In one test the target is GPR139 (Homo sapiens, UniProt Q6DWJ6). In words: Fluo-4 calcium mobilization assay, agonist mode, concentration-response curves in CHO-GPR139 cells. The note with it: for pEC50 ± SEM: GPR139, values printed with a minus sign; for Emax ± SEM: efficacy normalized to compound 1a; for EC50: GPR139.
Test [1] addresses muscarinic acetylcholine receptor M1 (Homo sapiens, UniProt P11229). In words: Calcium mobilization counter-screen in CHO-M1 cells. It is filed as cell-based. The following applies: concentration from which the calcium response is nonspecific. On the procedure: All compounds were tested on a CHO-k1 cell line stably expressing GPR139 (CHO-GPR139)[11] kindly provided by H. Lundbeck A/S, Denmark. GPR139-specific responses were assessed using a CHO-k1 cell line stably expressing the muscarinic acetylcholine receptor M1 (CHO-M1) (The Missouri S&T cDNA Resource Center, # CEM100TN00). The CHO-GPR139 cells were grown in Dulbecco’s modified Eagle’s medium (DMEM) F12-Kaighn’s (ThermoFisher Scientific # 21127) supplemented with 10% dialyzed fetal bovine serum (United States origin; ThermoFisher Scientific # 26400), 1% GlutaMAX-I (100X) (ThermoFisher Scientific # 35050061), and 100 units/mL penicillin and 100 µg/mL streptomycin (ThermoFisher Scientific # 15140122) and 1 mg/mL geneticin (ThermoFisher Scientific # 11811031). The CHO-M1 cells were grown in Ham’s F12 (ThermoFisher Scientific # 21765) supplemented with 10% fetal bovine serum (South American origin; ThermoFisher Scientific # 10270) + 100 units/mL penicillin and streptomycin and 0.25 mg/mL geneticin.
The primary screening of 4,000 diverse screening compounds on GPR139, led us to identify 108 initial actives in GPR139-expressing cells. […] We excluded compounds that had (1) an effect on another simultaneously tested GPCR (data not shown), (2) reactive groups, or (3) poor predicted solubility. 52 of the active compounds were re-purchased for validation, which were tested at three concentrations (100, 50 and 25 μM) using the same methodology as in the screening campaign. Out of the 52 compounds, 13 compounds had no effect (excluded as false positives), 28 compounds elicited an equal response in GPR139 and muscarinic acetylcholine receptor M1 cells and were designated as not selective, and 11 compounds were identified as viable candidates (AC4, AC7, AC8, AC9, AC10, AC11, AC12, AC13, AC14, AC16, and AC37) (Supplementary Fig. S1). None of the 11 hits promoted calcium mobilization in the M1 receptor cells (data not shown). The 11 hits were then screened in pure agonist mode (i.e., without the presence of 1a) to evaluate if they were agonists or antagonists (Fig. 3 and Supplementary Table S1). All 11 hits were agonists.
When screening the compounds as antagonists they were pre-incubated for 10 min as in the HTS. 33 μL of 3.2 μM 1a on the CHO-GPR139 cells or 20 μM carbachol on the CHO-M1 cells were added automatically after baseline measurements.
In general terms: Calcium assays in cells follow changes in intracellular calcium, usually with a dye or a luminescent sensor.

With `CC(C)OCCCNC(=O)N[C@@H](C)c1cccc(Cl)c1`, on GPR139, the “pEC50 ± SEM” value is recorded as -6.03 and the Emax ± SEM amounted to 97%.
Regarding `CC1(c2cccc3ccccc23)NC(=O)N(CCC(=O)NC2CCCCC2)C1=O` (stereo not shown), on GPR139, the EC50 amounted to 3.09 µM, the “pEC50 ± SEM” value was -5.51 and the Emax ± SEM is 66%.
Turning to `O=C(NCCCc1nc2ccccc2[nH]1)NC1CCSc2ccc(F)cc21` (single isomer, unassigned), at GPR139, the “pEC50 ± SEM” value is recorded as -6.11.
In the case of `CC(C)OCCCNC(=O)N[C@@H](C)c1ccccc1Cl`, at GPR139, the EC50 is 0.6 µM, the “pEC50 ± SEM” value is recorded as -6.22 and the Emax ± SEM is 102%.
Turning to `Cc1ccc(C(C)NC(=O)NCCCNC(=O)C(C)C)cc1F` (stereo not shown), on GPR139, the EC50 was 1.99 µM, the “pEC50 ± SEM” value is -5.70 and the Emax ± SEM was determined as 97%.
The corresponding values for `CC(=O)Nc1ccc(C(=O)CN2C(=O)N[C@](C)(c3ccc4c(c3)OCCO4)C2=O)c(F)c1` are 10.2 µM, -4.99 and 99%.
As for `CC(C)CCNC(=O)CN1C(=O)NC(C)(c2ccc3c(c2)OCO3)C1=O` (stereo not shown), at GPR139, the concentration giving a half-maximal response (EC50) turned out to be 1.16 µM, the “pEC50 ± SEM” value is listed as -5.94 and the Emax ± SEM was 98%.
For `O=C(CN1C(=O)NC2(CCCc3ccccc32)C1=O)c1ccc2c(c1)OCO2` (stereo not shown) the same measures were 2.06 µM, -5.69 and 94%.
The corresponding values for `COc1ccc([C@@]2(C)NC(=O)N(Cc3cn4cc(Cl)ccc4n3)C2=O)cc1` are 24 µM, -4.62 and 95%.
As for `CCCC(=O)Nc1ccc(C(=O)CN2C(=O)N[C@](C)(c3ccc4c(c3)OCO4)C2=O)cc1`, on GPR139, the EC50 was found to be 21.7 µM, the “pEC50 ± SEM” value was -4.66 and the Emax ± SEM amounted to 113%.
The corresponding values for `CC1(c2ccc3c(c2)OCO3)NC(=O)N(CC(=O)c2c[nH]c(C(=O)N3CCCC3)c2)C1=O` (stereo not shown) are 3.18 µM, -5.50 and 97%.
On to `C=CCN(CC=C)C(=O)CN1C(=O)NC(C)(c2ccc3c(c2)OCO3)C1=O` (single isomer, unassigned), for which the “pEC50 ± SEM” value at GPR139 is -6.41.
Regarding `CC1(c2cccc3ccccc23)NC(=O)N(CC(=O)c2ccc[nH]2)C1=O` (stereo not shown), at GPR139, the EC50 stood at 1.06 µM, the “pEC50 ± SEM” value is reported as -5.98 and the Emax ± SEM stood at 63%.
The corresponding values for `CC1(c2cccc3ccccc23)NC(=O)N(CC(=O)N2CC(=O)Nc3ccccc32)C1=O` (stereo not shown) are 1.91 µM, -5.72 and 84%.
The corresponding values for `CCOc1ccc(C(C)NC(=O)NCCCOCC(C)C)cc1` (stereo not shown) are 8.07 µM, -5.09 and 92%.
The corresponding values for `CN(C)C(=O)CN1C(=O)NC(C)(c2ccc3c(c2)OCO3)C1=O` (stereo not shown) are 6.53 µM, -5.19 and 101%.
Consider `CC1(c2ccc3c(c2)OCO3)NC(=O)N(CC(=O)c2ccccc2)C1=O` (stereo not shown), for which, on GPR139, the EC50 came out at 2.14 µM, the “pEC50 ± SEM” value is reported as -5.67 and the Emax ± SEM was 94%. Moreover, the “Note: Nonspecific ≥ concentration” value in test [1] is given as “Nonspecific ≥ 10 μM”.
Take `CC(C)CN1CCOC(CNC(=O)NCc2ccc(Cl)s2)C1` (stereo not shown): at GPR139, the EC50 worked out at 14.8 µM, the “pEC50 ± SEM” value is recorded as -4.83 and the Emax ± SEM was determined as 89%.
The corresponding values for `Cc1ccc2nc(CN3C(=O)N[C@](C)(c4ccc5c(c4)OCO5)C3=O)cn2c1` are 14.4 µM, -4.84 and 103%.
As for `CC1(c2ccc3c(c2)OCO3)NC(=O)N(Cc2cn3ccccc3n2)C1=O` (stereo not shown), on GPR139, the half-maximal effective concentration (EC50) turned out to be 1.9 µM, the “pEC50 ± SEM” value was -5.72 and the Emax ± SEM turned out to be 106%.
On to `CC(C)COCCCNC(=O)N[C@@H](C)c1ccc(Br)cc1`, for which, at GPR139, the “pEC50 ± SEM” value is listed as -6.54 and the Emax ± SEM was found to be 102%.
Regarding `CC(NC(=O)CN1C(=O)NC(C)(c2ccc3c(c2)OCO3)C1=O)C1CC1` (stereo not shown), on GPR139, the EC50 is 1.88 µM, the “pEC50 ± SEM” value is -5.73 and the Emax ± SEM turned out to be 103%.
The corresponding values for `O=C1NC2(CCc3ccccc32)C(=O)N1Cc1cn2ccccc2n1` (stereo not shown) are 12.1 µM, -4.92 and 101%.
For `CC(C)OCCCNC(=O)NC(C)c1ccc(F)c(F)c1` (stereo not shown) the same measures were 1.31 µM, -5.88 and 101%.
In the case of `Cc1ccc(CNC(=O)NCCCOCC2CC2)cc1F`, on GPR139, the EC50 stood at 1.32 µM, the “pEC50 ± SEM” value is -5.88 and the Emax ± SEM is 109%.
Regarding `CC1(c2ccc3c(c2)OCCO3)NC(=O)N(CC(=O)c2ccccc2F)C1=O` (stereo not shown), on GPR139, the EC50 was found to be 1.22 µM, the “pEC50 ± SEM” value is on record as -5.92 and the Emax ± SEM was 99%. The “Note: Nonspecific ≥ concentration” value in test [1] is reported as “Nonspecific ≥ 30 μM”.
Consider `CC(C)(C)C(=O)CN1C(=O)NC(C)(c2ccc3c(c2)OCCO3)C1=O` (stereo not shown), for which, at GPR139, the EC50 worked out at 3.56 µM, the “pEC50 ± SEM” value is -5.45 and the Emax ± SEM was 107%.
For `O=C(CN1C(=O)NC2(CCCc3ccccc32)C1=O)c1ccccc1` (stereo not shown) the same measures were 6.4 µM, -5.19 and 82%.
The corresponding values for `O=C(NCCCOC1CCCCC1)NCc1ccc(Cl)cc1` are 16.1 µM, -4.79 and 75%.
The corresponding values for `COc1ccc(C(NC(=O)NCC2CCCO2)C(F)(F)F)cc1` (stereo not shown) are 11.3 µM, -4.95 and 98%.
For the compound `CCOC(=O)c1c(C)[nH]c(C)c1C(=O)CN1C(=O)NC(C)(c2ccc3c(c2)OCO3)C1=O` (stereo not shown), on GPR139, the EC50 is 1.46 µM, the “pEC50 ± SEM” value is recorded as -5.84 and the Emax ± SEM was 103%.
For `CC1(c2ccc3c(c2)OCCO3)NC(=O)N(CC(=O)c2ccc3c(c2)CCN3S(C)(=O)=O)C1=O` (stereo not shown) the same measures were 4.23 µM, -5.37 and 97%.
The corresponding values for `CC1(c2cccc3ccccc23)NC(=O)N(CC(=O)N2CCCc3ccccc32)C1=O` (stereo not shown) are 1.87 µM, -5.73 and 56%.
Regarding `CC1(C2CC2)NC(=O)N(CC(=O)N2CCCSc3ccccc32)C1=O` (single isomer, unassigned), the “pEC50 ± SEM” value on GPR139 is on record as -5.15.
With `COCCn1c(C)cc(C(=O)CN2C(=O)NC(C)(c3cccc4ccccc34)C2=O)c1C` (stereo not shown), at GPR139, the EC50 was found to be 1.85 µM, the “pEC50 ± SEM” value is recorded as -5.73 and the Emax ± SEM was 94%.
As to `CC1(c2ccc3c(c2)OCCO3)NC(=O)N(CC(=O)c2ccc(S(C)(=O)=O)cc2)C1=O` (stereo not shown), at GPR139, the EC50 was determined as 1.85 µM, the “pEC50 ± SEM” value is on record as -5.73 and the Emax ± SEM came to 97%.
Consider `CC(C)N(C(=O)CN1C(=O)NC(C)(c2cccc3ccccc23)C1=O)C(C)C` (stereo not shown), for which, on GPR139, the EC50 was determined as 2.81 µM, the “pEC50 ± SEM” value is listed as -5.55 and the Emax ± SEM was determined as 77%.
Turning to `CC(C)OCCCNC(=O)NC(C)c1ccc2c(c1)OCO2` (single isomer, unassigned), on GPR139, the “pEC50 ± SEM” value is recorded as -5.43.
Turning to `CC1(c2ccc3c(c2)OCO3)NC(=O)N(CC(=O)c2ccc3c(c2)CCC3)C1=O` (stereo not shown), on GPR139, the EC50 was found to be 1 µM, the “pEC50 ± SEM” value was -6.00 and the Emax ± SEM was found to be 65%.
As for `CC(C)CCNC(=O)CNC(=O)NCc1ccc(F)cc1`, on GPR139, the half-maximal effective concentration (EC50) is 14.1 µM, the “pEC50 ± SEM” value was -4.85 and the Emax ± SEM was found to be 87%.
Consider `O=C(CN1C(=O)NC2(CCCc3ccccc32)C1=O)c1ccc(N2CCCC2=O)cc1` (stereo not shown), for which, on GPR139, the EC50 was 9.77 µM, the “pEC50 ± SEM” value is -5.01 and the Emax ± SEM was 77%.
The corresponding values for `O=C1NC2(CCCc3ccccc32)C(=O)N1Cc1cn2ccccc2n1` (stereo not shown) are 2.08 µM, -5.68 and 102%.
For `CC(C)CNC(=O)CNC(=O)NC(C)c1ccc(OC(F)F)cc1` (stereo not shown) the same measures were 1.44 µM, -5.84 and 105%.
As to `CC1(c2ccc3c(c2)OCO3)NC(=O)N(CC(=O)N2CCCC2)C1=O` (stereo not shown), on GPR139, the EC50 came to 1.3 µM, the “pEC50 ± SEM” value is given as -5.89 and the Emax ± SEM turned out to be 100%.
